# Assay results reported in patent publication US20100048465A1.
# Chains of the proteins cited; added tags and fusions are not shown. Lines headed by an entry give the natural chain unless they say otherwise; changes in a name come on top.
# UniProt Q01727: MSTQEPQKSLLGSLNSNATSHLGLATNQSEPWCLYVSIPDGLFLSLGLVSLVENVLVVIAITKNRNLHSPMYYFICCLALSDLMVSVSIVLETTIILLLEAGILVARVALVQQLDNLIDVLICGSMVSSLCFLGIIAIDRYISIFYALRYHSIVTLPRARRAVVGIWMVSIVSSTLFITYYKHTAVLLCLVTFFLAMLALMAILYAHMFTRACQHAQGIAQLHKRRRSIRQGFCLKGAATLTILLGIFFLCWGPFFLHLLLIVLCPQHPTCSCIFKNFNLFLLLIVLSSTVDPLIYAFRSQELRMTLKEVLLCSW
# B1: Mouse agouti (93-132)-NH2 (peptide, UniProt Q03288 92-131, looked up)
# peptide: CVATRDSCKPPAPACCDPCASCQCRFFGSACTCRVLNPNC-NH2
# modifications: ends and bridges not checked
# Biological target: melanocortin-1 receptor (MC1R) on murine macrophage-like RAW 264.7 cells (mouse (murine RAW 264.7 cells)) (UniProt Q01727)
# Assay: cell-based or functional assay
binder,measurement,value
B1,"TNF release by LPS-stimulated RAW 264.7 cells, LPS alone set at 100%; agouti 10^3 pM with MECO-1 10^-12 M (% of TNF release by LPS alone)",173
same,"TNF release by LPS-stimulated RAW 264.7 cells, LPS alone set at 100%; agouti 10^3 pM with α-MSH 10^-12 M (% of TNF release by LPS alone)",139
same,"TNF release by LPS-stimulated RAW 264.7 cells, LPS alone set at 100%; agouti 10^5 pM with MECO-1 10^-12 M (% of TNF release by LPS alone)",152
same,"TNF release by LPS-stimulated RAW 264.7 cells, LPS alone set at 100%; agouti 10^5 pM with α-MSH 10^-12 M (% of TNF release by LPS alone)",122

# Ends that are not written are not given here.
